Assay [1] concerns UM-UC-9 engineered cells. Kind of assay: Cell proliferation / short-term viability assay, CellTiter-Glo 144 h. Particulars: read-out: CTGlo 144 h UMUC9.5, G150. For orientation: In ATP-based viability assays light output follows the ATP content of the culture.
Assay [2] addresses His6-TEV-PPARγ-(234-505) (Homo sapiens, UniProt P37231). Kind of assay: TR-FRET Assay to Measure Co-R Peptide Recruitment to PPARγ. The settings on record: read-out: TR-FRET i-Ag, Co-R peptide (SMRT-ID2) recruitment, top final concentration 20 μM. (In general: TR-FRET usually uses a lanthanide donor and a delayed reading to cut background.)

Amino acid sequences for entries named in this document (tags omitted). Residues count along the entry.
UniProt P37231, 234-505 limits assumed: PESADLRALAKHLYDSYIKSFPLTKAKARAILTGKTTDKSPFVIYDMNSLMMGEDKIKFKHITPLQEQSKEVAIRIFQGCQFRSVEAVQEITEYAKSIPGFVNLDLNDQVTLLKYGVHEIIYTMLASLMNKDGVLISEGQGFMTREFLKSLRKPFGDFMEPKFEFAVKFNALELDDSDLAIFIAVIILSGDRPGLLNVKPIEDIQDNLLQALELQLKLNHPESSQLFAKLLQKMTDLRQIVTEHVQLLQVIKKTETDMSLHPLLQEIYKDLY

With `COc1cc(-c2cc(C(=O)N3CC[C@H](C(=O)NC4CCN(c5ncc(C#N)cn5)C4)CC34CC4)n[nH]2)c(F)cn1` (single isomer, unassigned) [Example 472-A], the IC50 in assay [1] turned out to be 41.1 nM. Also, in assay [2], the AC50 came out at 11.5 nM.
The matching figures for `COc1cc(-c2cc(C(=O)N3[C@@H]4CC[C@H]3C[C@H](C(=O)NC3CCC(OC)(C(F)(F)F)CC3)C4)n[nH]2)c(F)cn1` (single isomer, unassigned) [Example 275-A]: 11.4 nM and 5.5 nM.
For `COc1cc(-c2cc(C(=O)N3CC[C@H](C(=O)NCC4CCS(=N)(=O)C4(C)C)CC34CC4)n[nH]2)c(F)cn1` (single isomer, unassigned) [Example 372-D], in that order: over 10000 nM and 1410 nM.
The matching figures for `COc1cc(-c2cc(C(=O)N3CC[C@H](C(=O)NC4CCN(c5ncc(C#N)cn5)C4)CC34CC4)n[nH]2)c(F)cn1` (single isomer, unassigned) [Example 472-B]: 1370 nM and 21.9 nM.
On to `COc1cc(-c2cc(C(=O)N3[C@@H]4CC[C@H]3C[C@H](C(=O)NC3CCC(C(F)(F)F)N(C)C3)C4)n[nH]2)c(F)cn1` (single isomer, unassigned) [Example 306-F], for which, in assay [1], the IC50 amounted to 607 nM. In assay [2], the AC50 is 608 nM.
The matching figures for `COc1cc(-c2cc(C(=O)N3CC[C@H](C(=O)NC4CCN(c5ccnc(C)n5)C4)CC34CC4)n[nH]2)c(F)cn1` (single isomer, unassigned) [Example 431-B]: 49.6 nM and 17.8 nM.
For `COc1cc(-c2cc(C(=O)N3CC[C@H](C(=O)NCC4CCS(=N)(=O)C4(C)C)CC34CC4)n[nH]2)c(F)cn1` (single isomer, unassigned) [Example 372-E], in that order: over 10000 nM and 577 nM.
For `COc1cc(-c2cc(C(=O)N3CC[C@@H](C(=O)NC4CCC(C(F)(F)F)N(C)C4)CC34CC4)n[nH]2)c(F)cn1` (single isomer, unassigned) [Example 322-A], in that order: 138 nM and 338 nM.
For the compound `Cc1cc(-c2cc(C(=O)N3[C@@H]4CC[C@H]3C[C@H](C(=O)NC3CCC(C(F)(F)F)N(C)C3)C4)n[nH]2)c(F)cn1` (single isomer, unassigned) [Example 311-C], the IC50 in assay [1] was found to be 2350 nM. Further, the AC50 in assay [2] is 997 nM.
For the compound `COc1cc(-c2cc(C(=O)N3CC(C)C(C(=O)N[C@H]4CC[C@@](O)(C(F)(F)F)CC4)CC3C)n[nH]2)c(F)cn1` (single isomer, unassigned) [Example 298-F], the IC50 in assay [1] was over 4000 nM. Further, in assay [2], the AC50 was 10400 nM.
The matching figures for `COc1cc(-c2cc(C(=O)N3CC[C@H](C(=O)Nc4cnn5ccc(C6CC6C#N)nc45)CC34CC4)n[nH]2)c(F)cn1` (single isomer, unassigned) [Example 466-B]: 52.9 nM and 4 nM.
`COc1cc(-c2cc(C(=O)N3CC(C)C(C(=O)NCc4cccc(Cl)c4)CC3C)n[nH]2)c(Cl)cn1` (single isomer, unassigned) [Example 266-B]: in assay [1], the IC50 was determined as 483 nM. In addition, in assay [2], the AC50 is 144 nM.
For `COc1cc(-c2cc(C(=O)N3CC[C@H](C(=O)NC4CN(CC5(C(F)(F)F)CC5)CC4(F)F)CC34CC4)n[nH]2)c(F)cn1` (single isomer, unassigned) [Example 435-A], in that order: 59.5 nM and 9.2 nM.
For `COc1cc(-c2cc(C(=O)N3CC[C@H](C(=O)NC4COCC4N4CCOCC4)CC34CC4)n[nH]2)c(F)cn1` (single isomer, unassigned) [Example 414-B], in that order: over 10000 nM and at least 20000 nM.
